For one assay, the target named is CB1 cannabinoid receptor (Rattus norvegicus, UniProt P20272). The assay can be described thus: CB1 receptor binding, [3H]CP-55,940 displacement. The note with it: read-out: Ki CB1 (nM) (o/w PMSFQ); without PMSF (first value of cell); rat forebrain membranes. Here is the method: Some inventive analogs were tested for CB2 receptor binding affinity and for CB1 receptor affinity (to determine selectivity). As used herein, “binding affinity” is represented by the Ki value which is the inhibition constant correlated with the concentration of an analog required to occupy the 50% of the total number (Bmax) of the receptors. The lower the Ki value, the higher the binding affinity. […] For the CB1 receptor binding studies, membranes were prepared from rat forebrain membranes according to the procedure of P. R. Dodd et al, A Rapid Method for Preparing Synaptosomes: Comparison with Alternative Procedures, Brain Res., 107-118 (1981). The binding of the novel analogues to the CB1 cannabinoid receptor was assessed as described in W. A. Devane et al, Determination and Characterization of a Cannabinoid Receptor in a Rat Brain, Mol. Pharmacol., 34, 605-613 (1988) and A. Charalambous et al, 5′-azido Δ^8-THC: A Novel Photoaffinity Label for the Cannabinoid Receptor, J. Med. Chem., 35, 3076-3079 (1992) with the following changes. […]
The treated membranes were subsequently used in the binding assay described below. […] Radioactivity was detected using MicroScint 20 scintillation cocktail added directly to the dried filterplates, and the filterplates were counted using a Packard Instruments Top-Count. Nonspecific binding was assessed using 100 nM CP-55,940. […]

The chains behind the UniProt entries cited, without tags or fusion partners.
UniProt P20272, whole entry: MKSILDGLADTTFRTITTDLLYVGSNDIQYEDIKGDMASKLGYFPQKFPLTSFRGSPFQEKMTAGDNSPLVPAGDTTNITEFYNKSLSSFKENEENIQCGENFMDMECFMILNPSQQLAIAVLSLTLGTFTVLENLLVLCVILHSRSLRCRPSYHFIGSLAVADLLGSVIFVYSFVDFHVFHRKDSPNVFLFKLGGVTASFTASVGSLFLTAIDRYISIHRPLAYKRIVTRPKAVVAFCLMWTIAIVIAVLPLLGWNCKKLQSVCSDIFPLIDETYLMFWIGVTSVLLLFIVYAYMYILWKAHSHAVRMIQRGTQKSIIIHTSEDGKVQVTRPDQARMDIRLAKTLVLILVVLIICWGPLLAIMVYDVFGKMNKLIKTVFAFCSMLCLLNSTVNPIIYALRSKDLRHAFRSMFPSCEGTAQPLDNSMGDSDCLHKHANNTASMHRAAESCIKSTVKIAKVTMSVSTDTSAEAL
UniProt Q8R431, whole entry: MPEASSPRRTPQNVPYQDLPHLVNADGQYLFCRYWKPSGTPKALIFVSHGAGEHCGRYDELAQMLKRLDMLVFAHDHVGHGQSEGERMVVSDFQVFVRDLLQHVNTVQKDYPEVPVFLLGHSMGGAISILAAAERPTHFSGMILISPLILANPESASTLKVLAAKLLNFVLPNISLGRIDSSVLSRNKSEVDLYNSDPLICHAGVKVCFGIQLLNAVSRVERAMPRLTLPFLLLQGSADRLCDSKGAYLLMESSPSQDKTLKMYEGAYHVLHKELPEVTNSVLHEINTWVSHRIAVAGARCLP
UniProt P97612, whole entry: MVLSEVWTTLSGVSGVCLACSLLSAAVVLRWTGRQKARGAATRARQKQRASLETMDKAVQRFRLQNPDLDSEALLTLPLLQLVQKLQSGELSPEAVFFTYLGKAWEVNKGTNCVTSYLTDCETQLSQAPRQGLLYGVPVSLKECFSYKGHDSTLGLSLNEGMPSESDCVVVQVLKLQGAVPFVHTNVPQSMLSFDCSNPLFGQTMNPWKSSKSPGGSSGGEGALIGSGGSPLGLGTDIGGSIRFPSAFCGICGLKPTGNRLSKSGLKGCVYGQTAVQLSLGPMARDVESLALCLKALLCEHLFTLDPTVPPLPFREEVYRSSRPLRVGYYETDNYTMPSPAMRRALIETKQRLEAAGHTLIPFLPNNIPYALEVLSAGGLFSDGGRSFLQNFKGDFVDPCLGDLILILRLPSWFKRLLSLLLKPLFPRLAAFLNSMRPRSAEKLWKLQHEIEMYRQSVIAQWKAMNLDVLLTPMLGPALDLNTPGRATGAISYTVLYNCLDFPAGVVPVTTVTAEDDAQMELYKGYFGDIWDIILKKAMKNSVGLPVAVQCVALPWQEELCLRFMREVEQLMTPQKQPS

A further assay deals with anandamide transporter. Briefly: [3H]Anandamide transporter competition assay. To be noted: read-out: IC50 AT inhibition; human CCF-STG1 astrocytoma cells, 10 nM [3H]anandamide. As to the method: Human CCF-STG1 astrocytoma cells (American Type Culture collection) were grown in RPMI1640 culture medium containing 2 mM L-glutamine, 4.5 g/L glucose, 10 mM HEPES, and 1.0 mM sodium pyruvate, 10% FBS, cultures at 37° C. with 5% CO2. For standard competition assays, confluent cells grown in 24-well plates were rinsed and preincubated for 10 min at 37° C. in assay buffer (Hank's Balanced Salt Solution containing 0.1% DMSO, 10 mM HEPES) plus test compounds (at their final concentrations of 0.01-100 μM). After having discarded the preincubation media, the cells were incubated for 4 min in 0.2 ml assay buffer containing 10 nM [^3H] anandamide (137.6 Ci/mmol, New England Nuclear) plus test compounds. Reactions were stopped by removing the incubation media and rinsing the cells three times with 0.5 ml of ice-cold HBSS buffer containing 0.1% fatty acid-free Bovine Serum Albumin (sigma). Radioactive material in Triton X-100 cell extracts was measured by liquid scintillation counting. A minimum of three independent experiments conducted in six replicates was used to define the concentration needed to produce half-maximal inhibition (IC50) for each compound. IC50 values were obtained by nonlinear regression fitting of the data, using the PRIZM software package. Data are expressed as mean±SEM.

In another assay the target is Mag-lipase (Rattus norvegicus, UniProt Q8R431). Briefly: Inhibition of MAG-lipase: 2-AG metabolism to arachidonic acid. The note with it: 30 nmoles compound with 30 nmoles 2-AG, 30 μg enzyme, 300 μL, 20 min. Here is the method:
All compound solutions were made to a concentration of 10 mM in DMSO. Three tests were performed on each compound: hydrolysis, to determine the stability of the compound in assay conditions without the enzyme present; metabolism, to determine the stability of the compound with the enzyme present; and inhibition of 2-Arachidonoyl glycerol (native substrate) metabolism to arachidonic acid.
The inhibition of 2-AG metabolism was measured by mixing 30 nmoles of the compound with 30 nmoles 2-AG, and 30 μg enzyme preparation in TME buffer (final volume of 300 μL). Again the reaction mixture was treated in the same manner as described above and the concentrations of 2-AG and AA were calculated using external standards. Percent inhibition was calculated using the following equation: % Inhib.=(AA20-AA0)i/(AA20-AA0)s where (AA20-AA0)i is the amount of arachidonic acid formed over 20 minutes from 2-AG with the inhibitor present and (AA20-AA0)s is the amount of arachidonic acid formed over 20 minutes from 2-AG when the inhibitor is not present. […] The reaction mixtures were treated as described above and the amount of AA formed was calculated. The software package GraphPad Prism was utilized to calculate IC50 and Ki. HPLC Conditions:
Chromatographic separation was achieved using an Ultrasphere ODS Pre-column (4.6×45 mm) from Beckman. […]

Assay [1] addresses FAAH (fatty acid amide hydrolase) (Rattus norvegicus, UniProt P97612). The assay can be described thus: FAAH screening: inhibition of anandamide metabolism to arachidonic acid. To be noted: 25 nmoles compound with 25 nmoles AEA, 75 μg enzyme, 250 μL, 15 min. Here is the method: The FAAH (fatty acid amide hydrolase) enzyme preparation was obtained according to the procedure of Lang and Makriyannis et al High Performance Liquid Chromatographic Determination of Anandamide Amidase Activity in Rat Brain Microsomes, Analytical Biochemistry (238): 40-45, 1996.
All compound solutions were made to a concentration of 10 mM in DMSO. Three tests were performed on each compound: hydrolysis, to determine the stability of the compound in assay conditions without the enzyme present; metabolism, to determine the stability of the compound with the enzyme present; and inhibition of anandamide (native substrate) metabolism to arachidonic acid.
The inhibition of AEA metabolism was measured by mixing 25 nmoles of the compound with 25 nmoles AEA, and 75 μg enzyme preparation in TME buffer with 0.1% BSA (final volume of 250 μL). Again the reaction mixture was treated in the same manner as described above and the concentrations of AEA and AA were calculated using external standards. Percent inhibition was calculated using the following equation: % Inhib.=(AA15-AA0)i/(AA15-AA0)s where (AA15-AA0)c is the amount of arachidonic acid formed over 15 minutes from AEA with the inhibitor present and (AA15-AA0)s is the amount of arachidonic acid formed over 15 minutes from AEA when the inhibitor is not present. […]

The structures appear in SMILES notation.

Regarding `O=C(CCC/C=C\C/C=C\C/C=C\C/C=C\CCCCCN=C=S)NC1CC1`, on CB1 cannabinoid receptor, the Ki was 83.7 nM. In the assay on anandamide transporter, the IC50 amounted to 1.9 µM. Also, on Mag-lipase, the “Mag-Lipase % Inhibition” value is recorded as 5.2%. The “FAAH % Inhibition” value in assay [1] is 43%.

A word on the IC50: it is the concentration that gives 50% inhibition.

The values are drawn from patent US8202893B2, “Cannabinergic lipid ligands” (University of Connecticut, priority 2004, dated 2012).
